Measurements from ChEMBL document CHEMBL1135777, “Three-dimensional quantitative structure-activity relationships of mazindol analogues at the dopamine transporter” (J Med Chem, 2002).

Amino acid sequences for entries named in this document (tags omitted).
UniProt P23977, whole entry: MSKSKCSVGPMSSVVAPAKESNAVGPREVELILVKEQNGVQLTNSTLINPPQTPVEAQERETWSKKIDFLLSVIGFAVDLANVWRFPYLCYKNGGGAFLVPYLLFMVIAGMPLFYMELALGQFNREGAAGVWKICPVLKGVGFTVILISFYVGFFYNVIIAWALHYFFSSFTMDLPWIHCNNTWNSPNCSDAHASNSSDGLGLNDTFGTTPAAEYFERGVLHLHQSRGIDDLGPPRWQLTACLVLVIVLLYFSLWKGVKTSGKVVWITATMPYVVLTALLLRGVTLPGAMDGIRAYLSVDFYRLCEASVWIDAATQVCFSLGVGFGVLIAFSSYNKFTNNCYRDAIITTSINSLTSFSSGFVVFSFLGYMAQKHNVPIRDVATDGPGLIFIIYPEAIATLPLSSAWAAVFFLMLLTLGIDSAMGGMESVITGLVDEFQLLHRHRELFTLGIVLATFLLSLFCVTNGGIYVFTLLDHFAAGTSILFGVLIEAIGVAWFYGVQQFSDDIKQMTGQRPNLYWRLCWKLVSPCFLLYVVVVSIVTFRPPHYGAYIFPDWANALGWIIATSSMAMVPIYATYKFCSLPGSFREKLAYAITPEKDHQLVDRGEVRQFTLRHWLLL

Molecular target: Sodium-dependent dopamine transporter (Rattus norvegicus, UniProt P23977)
Test: Ability to displace [3H]WIN-35428 from dopamine transporter in rat caudate putamen tissue
Format: tissue-based

| Structure (SMILES) | IC50 |
| --- | --- |
| O=C(c1ccc(Cl)cc1)c1ccc(C2=NCCN2)cc1 | 3.1 µM |
| CC1(O)c2ccccc2C2=NCCN21 (configuration not stated) | 67 µM |
